Measured values: patent US11691963B2, “6-heteroaryloxy benzimidazoles and azabenzimidazoles as JAK2 inhibitors” (Ajax Therapeutics, Inc., priority 2020, dated 2023)

Amino acid sequences for entries named in this document (tags omitted). Residues count along the entry.
UniProt O60674, 849-1124 Y1007F/Y1008F: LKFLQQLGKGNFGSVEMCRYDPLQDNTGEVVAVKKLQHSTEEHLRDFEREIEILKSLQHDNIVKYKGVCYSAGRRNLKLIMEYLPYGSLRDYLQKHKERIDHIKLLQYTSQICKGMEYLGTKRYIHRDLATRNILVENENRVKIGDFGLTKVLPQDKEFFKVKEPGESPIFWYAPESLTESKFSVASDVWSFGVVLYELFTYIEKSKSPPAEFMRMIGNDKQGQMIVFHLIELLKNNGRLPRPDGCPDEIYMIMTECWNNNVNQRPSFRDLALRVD

Biological target: JAK2 (JH1domain-catalytic, Y1007F,Y1008F) kinase (Homo sapiens (Human), UniProt O60674, Y1007F/Y1008F)
Settings: read-out: JAK2 Kd

Q: With `CC(=O)Nc1cc(Oc2ccc3nc(Nc4cc(C5CC5)cn(C[C@H]5CCC[C@@H]5O)c4=O)n(C)c3c2)ccn1` (single isomer, unassigned) [Example I-75-b] as the compound, how does the Kd read?
A: < 10 nM

Same assay, conditions: read-out: JAK2 Kd; JAK2 JH1 domain-catalytic, Y1007F,Y1008F; qPCR readout

Q: `CC(=O)Nc1cc(Oc2ccc3nc(Nc4cc([C@H]5CC(=O)N(C)C5)cc(C(F)(F)F)c4)n(C)c3c2)ccn1` (mixture of isomers) [Example I-12-a, (R)—N-(4-((1-methyl-2-((3-(1-methyl-5-oxopyrrolidin-3-yl)-5-(trifluoromethyl)phenyl)amino)-1H-benzo[d]imidazol-6-yl)oxy)pyridin-2-yl)acetamide and (S)—N-(4-((1-methyl-2-((3-(1-methyl-5-oxopyrrolidin-3-yl)-5-(trifluoromethyl)phenyl)amino)-1H-benzo[d]imidazol-6-yl)oxy)pyridin-2-yl)acetamide] was tested. Which Kd did it give?
A: 10 to 50 nM

Q: How did the Kd turn out when `CC(=O)Nc1cc(Oc2ccc3nc(Nc4cc([C@@H]5CC(=O)N(C)C5)cc(C(F)(F)F)c4)n(C)c3c2)ccn1` (mixture of isomers) [Example I-12-b, (R)—N-(4-((1-methyl-2-((3-(1-methyl-5-oxopyrrolidin-3-yl)-5-(trifluoromethyl)phenyl)amino)-1H-benzo[d]imidazol-6-yl)oxy)pyridin-2-yl)acetamide and (S)—N-(4-((1-methyl-2-((3-(1-methyl-5-oxopyrrolidin-3-yl)-5-(trifluoromethyl)phenyl)amino)-1H-benzo[d]imidazol-6-yl)oxy)pyridin-2-yl)acetamide] was run?
A: 10 to 50 nM

Q: `CC(=O)Nc1cc(Oc2ccc3nc(Nc4cc(C(F)(F)F)n(C[C@H]5CCCOC5)n4)n(C)c3c2)ccn1` (mixture of isomers) [Example I-36-a, (S)—N-(4-((1-methyl-2-((1-((tetrahydro-2H-pyran-3-yl)methyl)-5-(trifluoromethyl)-1H-pyrazol-3-yl)amino)-1H-benzo[d]imidazol-6-yl)oxy)pyridin-2-yl)acetamide and (R)—N-(4-((1-methyl-2-((1-((tetrahydro-2H-pyran-3-yl)methyl)-5-(trifluoromethyl)-1H-pyrazol-3-yl)amino)-1H-benzo[d]imidazol-6-yl)oxy)pyridin-2-yl)acetamide] was tested. Which Kd did it give?
A: 50 to 1000 nM

Q: For `CC(=O)Nc1cc(Oc2ccc3nc(Nc4cc(C(F)(F)F)n(C[C@@H]5CCCOC5)n4)n(C)c3c2)ccn1` (mixture of isomers) [Example I-36-b, (S)—N-(4-((1-methyl-2-((1-((tetrahydro-2H-pyran-3-yl)methyl)-5-(trifluoromethyl)-1H-pyrazol-3-yl)amino)-1H-benzo[d]imidazol-6-yl)oxy)pyridin-2-yl)acetamide and (R)—N-(4-((1-methyl-2-((1-((tetrahydro-2H-pyran-3-yl)methyl)-5-(trifluoromethyl)-1H-pyrazol-3-yl)amino)-1H-benzo[d]imidazol-6-yl)oxy)pyridin-2-yl)acetamide], which Kd is on record?
A: 50 to 1000 nM

Q: Which Kd does the source give for `CC(=O)Nc1cc(Oc2ccc3nc(N[C@@H]4CCc5nc(C)c(C(F)(F)F)n5C4)n(C)c3c2)ccn1` (single isomer, unassigned) [Example I-45-a] here?
A: > 5000 nM

Q: For `CC(=O)Nc1cc(Oc2ccc3nc(N[C@H]4CCc5nc(C)c(C(F)(F)F)n5C4)n(C)c3c2)ccn1` (single isomer, unassigned) [Example I-45-b], which Kd is on record?
A: > 5000 nM

Q: For `CC(=O)Nc1cc(Oc2ccc3nc(Nc4cc(C(F)(F)F)cn(C[C@@H]5COCCO5)c4=O)n(C)c3c2)ccn1` (single isomer, unassigned) [Example I-58-a], which Kd is on record?
A: 10 to 50 nM

Q: With `CC(=O)Nc1cc(Oc2ccc3nc(Nc4cc(C5CC5)cn(C[C@H]5CCOC5)c4=O)n(C)c3c2)ccn1` (single isomer, unassigned) [Example I-66-a] as the compound, how does the Kd read?
A: < 10 nM

Q: How did the Kd turn out when `CC(=O)Nc1cc(Oc2ccc3nc(Nc4cc(C5CC5)cn(C[C@@H]5CCOC5)c4=O)n(C)c3c2)ccn1` (single isomer, unassigned) [Example I-66-b] was run?
A: < 10 nM

Q: How did the Kd turn out when `CC(=O)Nc1cc(Oc2ccc3nc(Nc4cc(C5CC5)cn(C[C@@H]5CCC[C@H]5O)c4=O)n(C)c3c2)ccn1` (single isomer, unassigned) [Example I-75-a] was run?
A: < 10 nM

Q: Which Kd does the source give for `CO[C@H]1CC[C@H]1Cn1cc(C2CC2)cc(Nc2nc3ccc(Oc4ccnc(NC(C)=O)c4)cc3n2C)c1=O` (single isomer, unassigned) [Example I-76-b] here?
A: 10 to 50 nM

Q: How did the Kd turn out when `CC(=O)Nc1cc(Oc2cnc3nc(Nc4cc(C(C)(C)C)n(C[C@@H]5CCOC5)n4)n(C)c3c2)ccn1` (single isomer, unassigned) [Example I-112-a] was run?
A: < 10 nM

Q: With `CC(=O)Nc1cc(Oc2cnc3nc(Nc4cc(C(C)(C)C)n(C[C@H]5CCOC5)n4)n(C)c3c2)ccn1` (single isomer, unassigned) [Example I-112-b] as the compound, how does the Kd read?
A: < 10 nM

Q: `CC(=O)Nc1cc(Oc2cnc3nc(Nc4cc(C(C)(C)C)n(C[C@H]5CCOC5)n4)n(C)c3c2C)ccn1` (single isomer, unassigned) [Example I-117-a] was tested. Which Kd did it give?
A: < 10 nM

Q: `CC(=O)Nc1cc(Oc2cnc3nc(Nc4cc(C(C)(C)C)n(C[C@@H]5CCOC5)n4)n(C)c3c2C)ccn1` (single isomer, unassigned) [Example I-117-b] was tested. Which Kd did it give?
A: < 10 nM

Q: Which Kd does the source give for `CC(=O)Nc1cc(Oc2cnc3nc(Nc4cc(C(C)(C)C)n(C[C@H]5COCCO5)n4)n(C)c3c2C)ccn1` (single isomer, unassigned) [Example I-129-a] here?
A: 10 to 50 nM

Q: With `Cn1c(Nc2cc(C(C)(C)C)n(C[C@@H]3COCCO3)n2)nc2ncc(Oc3ccnc(NC(=O)C4CC4)c3)cc21` (single isomer, unassigned) [Example I-135-b] as the compound, how does the Kd read?
A: 10 to 50 nM

Q: `CC(=O)Nc1cc(Oc2cnc3nc(Nc4cc(C(C)(C)C)n([C@H]5CCC[C@H]5O)n4)n(C)c3c2)ccn1` (single isomer, unassigned) [Example I-162-a] was tested. Which Kd did it give?
A: < 10 nM

Q: For `COc1c(Oc2ccnc(NC(C)=O)c2)cnc2nc(Nc3cc(C(C)(C)C)n([C@@H]4CN(C)CC4(F)F)n3)n(C)c12` (single isomer, unassigned) [Example I-172-a], which Kd is on record?
A: < 10 nM

Q: Which Kd does the source give for `CC(=O)Nc1cc(Oc2cnc3nc(Nc4cc(C(C)(C)C)n([C@@H]5CCOC5(C)C)n4)n(C)c3c2)ccn1` (single isomer, unassigned) [Example I-175-a] here?
A: < 10 nM

Q: How did the Kd turn out when `CC(=O)Nc1cc(Oc2cnc3nc(Nc4nc([C@@H]5CCOC5)c(C(C)(C)C)s4)n(C)c3c2)ccn1` (single isomer, unassigned) [Example I-187-a] was run?
A: < 10 nM

Q: With `CC(=O)Nc1cc(Oc2cnc3nc(Nc4nc([C@H]5CCOC5)c(C(C)(C)C)s4)n(C)c3c2)ccn1` (single isomer, unassigned) [Example I-187-b] as the compound, how does the Kd read?
A: < 10 nM

Q: For `CC(=O)Nc1cc(Oc2cnc3nc(Nc4cc(C(C)(C)C)n([C@@H]5CCOC56CC6)n4)n(C)c3c2)ccn1` (single isomer, unassigned) [Example I-189-a], which Kd is on record?
A: < 10 nM

Q: `CC(=O)Nc1cc(Oc2cnc3nc(Nc4cc(C(C)(C)C)n([C@H]5CCOC56CC6)n4)n(C)c3c2)ccn1` (single isomer, unassigned) [Example I-189-b] was tested. Which Kd did it give?
A: < 10 nM

Q: `COc1c(Oc2ccnc(NC(C)=O)c2)cnc2nc(Nc3cc(C(C)(C)C)n([C@@H]4CCOC45CC5)n3)n(C)c12` (single isomer, unassigned) [Example I-190-a] was tested. Which Kd did it give?
A: < 10 nM

Q: With `COc1c(Oc2ccnc(NC(C)=O)c2)cnc2nc(Nc3cc(C(C)(C)C)n([C@H]4CCOC45CC5)n3)n(C)c12` (single isomer, unassigned) [Example I-190-b] as the compound, how does the Kd read?
A: < 10 nM

Q: For `Cn1c(Nc2cn(C3CCC3)c([C@H]3CCOC3)n2)nc2ncc(Oc3ccnc(NC(=O)C4CC4)c3)cc21` (single isomer, unassigned) [Example I-198-a], which Kd is on record?
A: < 10 nM

Q: For `Cn1c(Nc2cn(C3CCC3)c([C@@H]3CCOC3)n2)nc2ncc(Oc3ccnc(NC(=O)C4CC4)c3)cc21` (single isomer, unassigned) [Example I-198-b], which Kd is on record?
A: < 10 nM

Q: `CC(=O)Nc1cc(Oc2ccc3nc(Nc4cc(C(C)(C)C)on4)n(C)c3c2)ccn1` [Example I-1, N-(4-((2-((5-(tert-butyl)isoxazol-3-yl)amino)-1-methyl-1H-benzo[d]imidazol-6-yl)oxy)pyridin-2-yl)acetamide] was tested. Which Kd did it give?
A: < 10 nM

Q: For `CC(=O)Nc1cc(Oc2ccc3nc(Nc4cc(C(C)(C)C)on4)n(C)c3c2C)ccn1` [Example I-2, N-(4-((2-((5-(tert-butyl)isoxazol-3-yl)amino)-1,7-dimethyl-1H-benzo[d]imidazol-6-yl)oxy)pyridin-2-yl)acetamide], which Kd is on record?
A: < 10 nM

Q: How did the Kd turn out when `CC(=O)Nc1cc(Oc2ccc3nc(Nc4cc(C(C)(C)C)on4)n(C)c3c2C#N)ccn1` [Example I-3, N-(4-((2-((5-(tert-butyl)isoxazol-3-yl)amino)-7-cyano-1-methyl-1H-benzo[d]imidazol-6-yl)oxy)pyridin-2-yl)acetamide] was run?
A: < 10 nM

Q: For `CC(=O)Nc1cc(Oc2ccc3nc(Nc4ccc(F)cc4F)n(C)c3c2C)ccn1` [Example I-6, N-(4-((2-((2,4-difluorophenyl)amino)-1,7-dimethyl-1H-benzo[d]imidazol-6-yl)oxy)pyridin-2-yl)acetamide], which Kd is on record?
A: < 10 nM

Q: For `CC(=O)Nc1cc(Oc2ccc3nc(Nc4ccc(Cc5cncn5C)c(C(F)(F)F)c4)n(C)c3c2)ccn1` [Example I-9], which Kd is on record?
A: 1000 to 5000 nM

Q: With `CC(=O)Nc1cc(Oc2ccc3nc(Nc4cccc(N5CCOCC5)n4)n(C)c3c2)ccn1` [Example I-13, N-(4-((1-methyl-2-((6-morpholinopyridin-2-yl)amino)-1H-benzo[d]imidazol-6-yl)oxy)pyridin-2-yl)acetamide] as the compound, how does the Kd read?
A: > 5000 nM

Q: Which Kd does the source give for `CCN1CCN(Cc2ccc(Nc3nc4ccc(Oc5ccnc(NC(=O)C6CC6)c5)cc4n3C)cc2C(F)(F)F)CC1` [Example I-14, N-(4-((2-((4-((4-ethylpiperazin-1-yl)methyl)-3-(trifluoromethyl)phenyl)amino)-1-methyl-1H-benzo[d]imidazol-6-yl)oxy)pyridin-2-yl)cyclopropanecarboxamide] here?
A: < 10 nM

Q: For `CC(=O)Nc1cc(Oc2ccc3nc(Nc4cc(C(C)(C)C)n([C@H]5CCOC5)n4)n(C)c3c2)ccn1` [Example I-20, (S)—N-(4-((2-((5-(tert-butyl)-1-(tetrahydrofuran-3-yl)-1H-pyrazol-3-yl)amino)-1-methyl-1H-benzo[d]imidazol-6-yl)oxy)pyridin-2-yl)acetamide], which Kd is on record?
A: < 10 nM
